Test results as given in patent US11401255B2, “Small molecule activators of Parkin enzyme function” (Mayo Foundation for Medical Education and Research, priority 2016, dated 2022).

Amino acid sequences for entries named in this document (tags omitted).
UniProt P33261, whole entry: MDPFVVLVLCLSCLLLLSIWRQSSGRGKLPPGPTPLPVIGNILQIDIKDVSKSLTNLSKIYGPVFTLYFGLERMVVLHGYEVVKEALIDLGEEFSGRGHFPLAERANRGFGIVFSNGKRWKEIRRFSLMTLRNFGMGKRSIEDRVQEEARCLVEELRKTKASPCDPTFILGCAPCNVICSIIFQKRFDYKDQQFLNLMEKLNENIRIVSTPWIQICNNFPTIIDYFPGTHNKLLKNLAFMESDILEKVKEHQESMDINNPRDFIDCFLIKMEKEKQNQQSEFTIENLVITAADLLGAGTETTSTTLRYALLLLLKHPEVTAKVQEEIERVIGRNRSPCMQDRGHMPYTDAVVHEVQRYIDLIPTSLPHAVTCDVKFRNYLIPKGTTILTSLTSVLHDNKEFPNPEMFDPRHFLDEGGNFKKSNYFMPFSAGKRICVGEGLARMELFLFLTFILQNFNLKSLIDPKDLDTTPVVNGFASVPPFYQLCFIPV

Target: CYP 2C19 (Homo sapiens (Human), UniProt P33261)
Details: 24 µM

COc1ccc2[nH]c([S+]([O-])Cc3ncc(C)c(OC)c3C)nc2c1 (stereo not shown) [omeprazole, reference compound]
CYP inhibition, %: 84.06%
